## AlphaSeq binding of Ab-14 heavy chain variants to a spike HR2 peptide

All variants were tested on one target, the spike HR2 peptide PDVDLGDISGINAS (SARS-CoV-2).

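Phage display of a naive human antibody library on the peptide gave the parent. The variants were designed computationally from a first round of random CDR variants and then made and measured. Their group label is 14H_En_Gibbs (En: ensemble of fine-tuned language models; Gibbs: Gibbs sampling). Affinity was read by AlphaSeq, a pooled yeast mating assay with surface-displayed partners. Pairs that bind mate more often; barcode pairs of the diploids are counted by sequencing. Read counts were normalised to the haploid input and turned into Kd by a linear fit to BCL2-family pairs of known affinity, for each replicate. Mating was done six times.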

Parent: Ab-14, a human scFv built as VH, a (GGGGS)3 linker, VL. Only the CDRs of the heavy chain vary.
VH: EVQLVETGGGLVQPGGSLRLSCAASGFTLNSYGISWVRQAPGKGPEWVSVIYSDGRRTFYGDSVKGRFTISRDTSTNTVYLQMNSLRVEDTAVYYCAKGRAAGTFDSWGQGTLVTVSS
VL: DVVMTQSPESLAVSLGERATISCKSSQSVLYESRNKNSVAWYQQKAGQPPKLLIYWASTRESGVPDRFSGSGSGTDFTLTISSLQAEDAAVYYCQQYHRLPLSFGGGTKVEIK

The parent's heavy chain CDRs are GFTLNSYGIS, VIYSDGRRTFYGDSVK, GRAAGTFDS; each variant's own CDRs replace them letter for letter. Affinities are written as log10 Kd with Kd in nM; a lower number is a better binder. Where no diploid with the target was found in that replicate, the entry reads "nd": below detection, most likely a poor binder, though not proof of it.

CDR-H1	CDR-H2	CDR-H3	log10 Kd (nM) by replicate	signal with controls
GFSIDEYGIS	VIYADGMRTAYVESVK	GTIDENITT	nd / 2.54 / nd / nd / nd / nd	0/18
GFDIEEYGIS	VIYADGVRTMYADDVK	GNSKTYSLT	nd / nd / nd / nd / nd / nd	0/18
GFDINEYGIS	VIYADGNRIAYQDQVK	GFNEGSFVI	nd / nd / nd / nd / nd / nd	0/18
GFNLLEYGIS	VIYADGRRMSYTDSVK	GGLGKYLTD	nd / nd / nd / nd / nd / nd	1/18 (2.29)
GFDIDEYGVS	VIYADGFRKAYAESVK	GLQQFGFTI	nd / nd / nd / nd / nd / nd	0/18
GFSLDEYGIS	VIYADGMRTAYTADVK	GGKSEDVFT	nd / 2.25 / 2.14 / nd / nd / nd	0/18
GESLLEYGIS	VIYADGSRVAYTNAVK	GNLAGAFDV	nd / 1.67 / 2.20 / 1.39 / 1.95 / 1.34	0/18
GFQLDEYGIS	VIYADGIRQYYAQKVK	GYNSTDMTV	nd / nd / nd / nd / nd / nd	0/18
GFSLDEFGIS	VIYADGMRSFYTDNVK	GINVNALVI	nd / nd / nd / nd / nd / nd	0/18
GENLDEYGIS	VIYADGVRSQYTDQVK	GVETGAVLD	2.39 / 2.46 / nd / 2.24 / 2.49 / nd	0/18
GFDLQEYGIS	VIYADGERRAYADKVK	GTHGGTRDI	nd / nd / nd / nd / nd / nd	0/18
GMDLNEYGIS	VIYADGSRTSYQEKVK	GLVGGMLAV	0.76 / 2.29 / nd / 1.55 / nd / 1.70	0/18
GFDINEYGIS	VIYADGLRTAYSQQVK	GQDLGDVVD	nd / nd / nd / nd / nd / nd	0/18
GIDLEKYGIS	VIYADGMRASYADAVK	GDLSGTFYI	nd / nd / nd / nd / nd / nd	0/18
GFSLGEYGIS	VIYADGVRRSYADKVK	GKNGAFSLV	nd / nd / nd / nd / nd / nd	0/18
GYDINEYGVS	VIYADGKRNAYANSVK	GKWAGAFVD	nd / nd / nd / nd / nd / 2.51	0/18
GFKIDEYGIS	VIYADGMRARYSDAVK	GVKVGNVVM	1.68 / 1.74 / 1.57 / nd / 2.25 / nd	0/18
GFDLEEFGIS	VIYADGTRKMYLPTVK	GVTGGTFDM	0.57 / 0.91 / 1.12 / 1.07 / 1.55 / 0.83	0/18
GNDLEEYGIS	VIYADGIRTNYSQNVK	GTLGDTFTQ	nd / nd / nd / nd / nd / nd	0/18
GFQLDEYGIS	VIYADGMRTAYSDSFK	GVVSTKIGI	nd / nd / nd / nd / nd / nd	0/18
GFNLGEYGIS	VIYADGKRMAYAWSVK	GKSAGTFNH	nd / nd / nd / nd / nd / nd	0/18
GDSLDEYGIS	VIYADGQRKAYMDNVK	GNGQAVLFD	nd / nd / nd / nd / nd / nd	0/18
GNNLDEYGIS	VIYADGQRSAYAQDVK	GKTGDNAFV	nd / nd / nd / nd / nd / nd	1/18 (2.74)
GFNFDEYGIS	VIYADGKRKAYSDSVK	GYSSGTMEV	nd / nd / nd / nd / nd / nd	0/18
GMDLQEFGIS	VIYADGVREYYTDDFK	GQIAGTFDD	0.95 / 1.19 / 1.05 / 0.67 / 1.09 / 1.10	0/18
GQNLEEYGIS	VIYADGKRNAYSNNVK	GTGGAVLVD	nd / nd / nd / nd / nd / nd	0/18
GFGLDEYGIS	VIFADGERKYYTDNVK	GHFGEDGIV	nd / 1.64 / nd / nd / 2.80 / nd	0/18
GFDLEDYGIS	VIYADGVRTAYSQNSK	GDNGIALDI	nd / nd / nd / nd / nd / 2.40	0/18
GFDLGEYGIS	VIYADGRRKGYSDAVK	GINSINVTV	nd / nd / nd / nd / nd / nd	0/18
GFDLDSYGIS	VIYADGRRSAYHDSVK	GTNGSVSFV	1.78 / 2.76 / nd / nd / nd / nd	0/18
GFDLNEYGIS	VIYADGIRSRYANKVK	GNGAGTLDI	nd / nd / 4.20 / nd / nd / nd	1/18 (2.43)
GFNLGEYGIS	VIYADGTRKGYANSVK	GAVGGFYLD	nd / nd / nd / nd / nd / nd	0/18
GFKLDEQGIS	VIYADGRRKGYTDSVK	GTNGINFTL	nd / nd / nd / nd / nd / nd	0/18

As a blank, each scFv also met three strains without target: over all heavy chain designs, 1% of these pairings were detected, typically at 2.08 and seldom below 0.84. For each scFv, signals with the empty controls are counted beside the result, with their mean in brackets. A sequence measured in both rounds can read differently, since the two assays cover different ranges. In the paper, a design with two or fewer of six values counts as a poor binder.

From the AlphaSeq antibody data of Li et al. 2023 (doi:10.1038/s41467-023-39022-2), copy in the FLAb collection.